Target: human Vascular-Endothelial Growth Factor (VEGF) (Homo sapiens, UniProt P15692-4)
Test: SPR

B1: anti-VEGF synthetic antibody G6, Fab (Fab, V domains shown)
VH: EVQLVESGGGLVQPGGSLRLSCAASGFTISDYWIHWVRQAPGKGLEWVAGITPAGGYTYYADSVKGRFTISADTSKNTAYLQMNSLRAEDTAVYYCARFVFFLPYAMDYWGQGTLVTVSS
VL: DIQMTQSPSSLSASVGDRVTITCRASQDVSTAVAWYQQKPGKAPKLLIYSASFLYSGVPSRFSGSGSGTDFTLTISSLQPEDFATYYCQQSYTTPPTFGQGTKVEIK
With B1 the Kd was 0.27 nM, the koff was 6e-05 s⁻¹ and the kon was 230000 M⁻¹ s⁻¹.
